Measurements taken from US9499561B2, “Fused pyrimidine compound, and preparation method, intermediate, composition, and uses thereof” (Shanghai Yingli Science and Technology Co., Ltd., priority 2012, dated 2016).
pIC50: −log10 of the molar value.

Protein sequences, listed by entry. Tags and fused reporters are not part of them. Lines headed by an entry give the natural chain unless they say otherwise; changes in a name come on top.
UniProt O00329: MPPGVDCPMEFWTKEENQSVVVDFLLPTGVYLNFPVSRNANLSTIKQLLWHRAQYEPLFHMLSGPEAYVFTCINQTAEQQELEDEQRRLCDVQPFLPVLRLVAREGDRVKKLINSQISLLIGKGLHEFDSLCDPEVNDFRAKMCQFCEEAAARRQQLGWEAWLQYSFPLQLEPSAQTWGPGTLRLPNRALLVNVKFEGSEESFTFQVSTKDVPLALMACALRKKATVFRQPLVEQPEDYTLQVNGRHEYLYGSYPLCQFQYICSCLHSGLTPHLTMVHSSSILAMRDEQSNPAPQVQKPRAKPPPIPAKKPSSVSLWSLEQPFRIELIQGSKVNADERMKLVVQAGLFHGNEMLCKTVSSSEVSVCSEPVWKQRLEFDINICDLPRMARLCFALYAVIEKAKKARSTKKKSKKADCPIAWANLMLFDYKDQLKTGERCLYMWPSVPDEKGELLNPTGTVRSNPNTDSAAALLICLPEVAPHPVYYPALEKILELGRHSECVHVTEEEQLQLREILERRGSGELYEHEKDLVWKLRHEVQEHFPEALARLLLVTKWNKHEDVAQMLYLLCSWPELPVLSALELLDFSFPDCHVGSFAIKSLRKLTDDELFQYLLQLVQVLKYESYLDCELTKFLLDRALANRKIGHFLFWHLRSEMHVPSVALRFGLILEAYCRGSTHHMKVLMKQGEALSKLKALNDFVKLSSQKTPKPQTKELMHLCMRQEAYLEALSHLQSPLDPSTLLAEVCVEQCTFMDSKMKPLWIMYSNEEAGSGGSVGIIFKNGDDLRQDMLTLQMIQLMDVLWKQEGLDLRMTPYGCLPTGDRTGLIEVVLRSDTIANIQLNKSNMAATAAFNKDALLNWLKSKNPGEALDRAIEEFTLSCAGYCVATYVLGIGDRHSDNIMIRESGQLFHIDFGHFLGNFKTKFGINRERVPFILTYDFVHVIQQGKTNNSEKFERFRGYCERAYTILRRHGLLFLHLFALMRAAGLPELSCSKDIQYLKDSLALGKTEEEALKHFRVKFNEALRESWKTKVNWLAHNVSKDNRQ

Biological target: PI3Kδ (Homo sapiens (Human), UniProt O00329)
Test: PI3Kδ enzymatic inhibitory activity IC50 assay (Caliper Reader)
Format: biochemical
Protocol: Biological Effect Example 1 PI3Kα and PI3Kδ Enzymatic Inhibitory Activity IC50 Assay • 1. Buffer preparation: 50 mM HEPES, pH 7.5, 3 mM MgCl2, 1 mM EGTA, 100 mM NaCl, 0.03% CHAPS. • 2. Compound was formulated in 100% DMSO in a concentration gradient, deposited to a 384-well plate to make final DMSO concentration of 1%. • 3. PI3Kα and PI3Kδ enzymes were diluted to be the optimum concentration with the following buffer: 50 mM HEPES, pH 7.5, 3 mM MgCl2, 1 mM EGTA, 100 mM NaCl, 0.03% CHAPS, 2 mM DTT. Transferred to a 384-well plate and incubated with the compound for a certain time. • 4. Substrate was diluted to an optimum concentration with following buffer: 50 mM HEPES, pH 7.5, 3 mM MgCl2, 1 mM EGTA, 100 mM NaCl, 0.03% CHAPS, 2 mM DTT, 50 μM PIP2, Km ATP. The reaction was performed in a 384-well plate for 1 h at room temperature for PI3Kα and 2 hrs at room temperature for PI3Kδ. • 5. Read the conversion rate using Caliper Reader, and calculate the inhibition rate as the average of two tests.

CN(Cc1csc2c(-c3cnc(N)nc3)nc(N3CCOCC3)nc12)C(=O)CO [Compound 32]
pIC50: 6.86
